The series can be described thus: Solubility (physicochemical properties).

“β-N-acetylglucosaminyl-(1→4)-N,6-O-diacetylmuramyl-L-alanyl-D- isoglutaminyl-(L)-meso-2,6-diaminopimelic acid-(D)-amide-(L)-D-alanine [GMP4 -B]”: the Solubility entry runs as follows: (in diethyl ether) “insoluble”; (in water, 50% C1-3 alcohol) “Soluble”.

Values taken from patent US4515891A, “Process for the production of disaccharide-tripeptide and disaccharide-tetrapeptide” (priority 1982, dated 1985).
